Curated experimental data: fraction unbound values

From the experimental data distributed with OPERA 2.9.

The unbound fraction in human plasma runs from 0 (all bound) to 1 (all free).

{"smiles": "CN1C[C@H](C(=O)N[C@]2(C)O[C@@]3(O)[C@@H]4CCCN4C(=O)[C@H](Cc4ccccc4)N3C2=O)C=C2c3cccc4[nH]cc(c34)C[C@H]21", "name": "Ergotamine", "fraction unbound": "0.02833"}
{"smiles": "CCCCCCCCOC(=O)c1ccccc1C(=O)OCCCCCCCC", "name": "Di-n-octyl phthalate", "fraction unbound": "0.0233"}
{"smiles": "O=[N+]([O-])O[C@H]1CO[C@H]2[C@@H]1OC[C@H]2O[N+](=O)[O-]", "name": "Isosorbide 2,5-dinitrate", "fraction unbound": "0.7567"}
{"smiles": "Oc1ccccc1-c1ccccc1", "name": "2-Phenylphenol", "fraction unbound": "0.04075"}
{"smiles": "CC(=O)O[C@H]1C[C@H](O[C@H]2[C@@H](O)C[C@H](O[C@H]3[C@@H](O)C[C@H](O[C@H]4CC[C@@]5(C)[C@H](CC[C@@H]6[C@@H]5C[C@@H](O)[C@]5(C)[C@@H](C7=CC(=O)OC7)CC[C@]65O)C4)O[C@@H]3C)O[C@@H]2C)O[C@H](C)[C@H]1O", "name": "alpha-Acetyldigoxin", "fraction unbound": "0.75"}
{"smiles": "c1cc[n+]2c(c1)-c1cccc[n+]1CC2", "name": "Diquat", "fraction unbound": "0.7553"}
{"smiles": "Cc1cc(-c2ccc(N)c(C)c2)ccc1N.Cl.Cl", "name": "3,3'-dimethylbenzidine dihydrochloride", "fraction unbound": "0.1281"}
{"smiles": "Cc1nnc2n1-c1sc(Br)cc1C(c1ccccc1Cl)=NC2", "name": "Brotizolam", "fraction unbound": "0.094"}
{"smiles": "CCOP(=S)(OCC)SCSCC", "name": "Phorate", "fraction unbound": "0.0129"}
{"smiles": "Oc1cc(Cl)c(Cl)cc1Cl", "name": "2,4,5-Trichlorophenol", "fraction unbound": "0.01266"}
{"smiles": "COP(=O)(OC)C(O)C(Cl)(Cl)Cl", "stereo": "stereo not drawn", "name": "Trichlorfon", "fraction unbound": "0.696"}
{"smiles": "COc1ccc2c(c1)[C@]13CCCC[C@@H]1[C@H](C2)N(C)CC3", "name": "Dextromethorphan", "fraction unbound": "0.53"}
{"smiles": "CCCCCCCCCCCCCN1CC(C)OC(C)C1", "stereo": "stereo not drawn", "name": "Tridemorph", "fraction unbound": "0.002679"}
{"smiles": "CCC1(C2=CCCCCC2)C(=O)NC(=O)NC1=O", "name": "Heptabarbital", "fraction unbound": "0.62"}
{"smiles": "Clc1cccc(Cl)c1Cl", "name": "1,2,3-Trichlorobenzene", "fraction unbound": "0.01567"}
{"smiles": "Oc1ccc(Cl)cc1Cl", "name": "2,4-Dichlorophenol", "fraction unbound": "0.23"}
{"smiles": "Cc1nnc(-c2ccccc2)c(=O)n1N", "name": "Metamitron", "fraction unbound": "0.693"}
{"smiles": "COc1cc2c(cc1OC)[C@@H]1CC(=O)[C@@H](CC(C)C)CN1CC2", "name": "Tetrabenazine", "fraction unbound": "0.15"}
{"smiles": "O=C(CS(=O)C(c1ccccc1)c1ccccc1)NO", "stereo": "stereo not drawn", "name": "Adrafinil", "fraction unbound": "0.2"}
{"smiles": "Cc1ccccc1O", "name": "o-Cresol", "fraction unbound": "0.38"}
{"smiles": "C=CCC1(C(C)C)C(=O)NC(=O)NC1=O", "name": "Aprobarbital", "fraction unbound": "0.38"}
{"smiles": "Cc1cc(Cl)ccc1OCC(=O)O", "name": "MCPA", "fraction unbound": "0.01833"}
{"smiles": "Nc1ccc2ccccc2c1", "name": "2-Naphthylamine", "fraction unbound": "0.1099"}
{"smiles": "COc1cc(CCN)cc(OC)c1OC", "name": "Mescaline", "fraction unbound": "0.85"}
{"smiles": "Oc1ccc2c(c1)[C@@]13CCCC[C@@]1(O)[C@@H](C2)N(CC1CCC1)CC3", "name": "Butorphanol", "fraction unbound": "0.1783"}
{"smiles": "CC[C@@H](CO)NC(=O)[C@@H]1C=C2c3cccc4[nH]cc(c34)C[C@H]2N(C)C1", "name": "Methergine", "fraction unbound": "0.65"}
{"smiles": "CC(=O)O[C@H]1[C@@H](O)C[C@H](O[C@H]2[C@@H](O)C[C@H](O[C@H]3[C@@H](O)C[C@H](O[C@H]4CC[C@@]5(C)[C@H](CC[C@@H]6[C@@H]5C[C@@H](O)[C@]5(C)[C@@H](C7=CC(=O)OC7)CC[C@]65O)C4)O[C@@H]3C)O[C@@H]2C)O[C@@H]1C", "name": "beta-Acetyldigoxin", "fraction unbound": "0.85"}
{"smiles": "COc1cc2O[C@H]3OC=C[C@H]3c2c2OC(=O)C3=C(CCC3=O)c12", "fraction unbound": "0.458"}

The last 3 entries again:

{"smiles": "CC[C@@H](CO)NC(=O)[C@@H]1C=C2c3cccc4[nH]cc(c34)C[C@H]2N(C)C1", "name": "Methergine", "fraction unbound": "0.65"}
{"smiles": "CC(=O)O[C@H]1[C@@H](O)C[C@H](O[C@H]2[C@@H](O)C[C@H](O[C@H]3[C@@H](O)C[C@H](O[C@H]4CC[C@@]5(C)[C@H](CC[C@@H]6[C@@H]5C[C@@H](O)[C@]5(C)[C@@H](C7=CC(=O)OC7)CC[C@]65O)C4)O[C@@H]3C)O[C@@H]2C)O[C@@H]1C", "name": "beta-Acetyldigoxin", "fraction unbound": "0.85"}
{"smiles": "COc1cc2O[C@H]3OC=C[C@H]3c2c2OC(=O)C3=C(CCC3=O)c12", "fraction unbound": "0.458"}

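The OPERA project collected these measurements from public sources as training and test data for property models. The files give a single number for a compound and property, which may rest on several reports. Method and conditions are not stated for these values. Where a salt, mixture or single isomer is drawn, the source does not say that exactly this form was tested. Some upstream entries may be estimates or bounds without being marked so.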